IC50 data for nine compounds are collected here from patent publication US9636336B2, “Aminoester derivatives” (CHIESI FARMACEUTICI S.p.A., priority 2015, dated 2017).

Protein sequences, listed by entry. Tags and fused reporters are not part of them. Chains listed by the source or under a name are the forms on record and can include a tag or linker.
UniProt Q07343, other isoform, or with tags, fused parts or gaps: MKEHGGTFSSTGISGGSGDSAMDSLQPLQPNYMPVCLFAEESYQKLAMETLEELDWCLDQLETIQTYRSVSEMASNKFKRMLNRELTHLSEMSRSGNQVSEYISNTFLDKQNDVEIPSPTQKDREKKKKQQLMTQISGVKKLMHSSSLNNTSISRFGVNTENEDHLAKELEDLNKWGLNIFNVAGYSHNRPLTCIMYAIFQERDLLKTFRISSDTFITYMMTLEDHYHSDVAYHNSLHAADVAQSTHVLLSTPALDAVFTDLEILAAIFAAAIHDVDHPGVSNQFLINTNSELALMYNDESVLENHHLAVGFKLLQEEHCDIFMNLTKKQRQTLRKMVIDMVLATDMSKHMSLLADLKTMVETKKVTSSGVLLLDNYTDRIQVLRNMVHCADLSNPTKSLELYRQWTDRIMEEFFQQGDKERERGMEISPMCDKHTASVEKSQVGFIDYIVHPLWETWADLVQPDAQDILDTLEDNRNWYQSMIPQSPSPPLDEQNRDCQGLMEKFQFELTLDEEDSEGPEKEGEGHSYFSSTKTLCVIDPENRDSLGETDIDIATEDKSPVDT
UniProt P20309, whole entry: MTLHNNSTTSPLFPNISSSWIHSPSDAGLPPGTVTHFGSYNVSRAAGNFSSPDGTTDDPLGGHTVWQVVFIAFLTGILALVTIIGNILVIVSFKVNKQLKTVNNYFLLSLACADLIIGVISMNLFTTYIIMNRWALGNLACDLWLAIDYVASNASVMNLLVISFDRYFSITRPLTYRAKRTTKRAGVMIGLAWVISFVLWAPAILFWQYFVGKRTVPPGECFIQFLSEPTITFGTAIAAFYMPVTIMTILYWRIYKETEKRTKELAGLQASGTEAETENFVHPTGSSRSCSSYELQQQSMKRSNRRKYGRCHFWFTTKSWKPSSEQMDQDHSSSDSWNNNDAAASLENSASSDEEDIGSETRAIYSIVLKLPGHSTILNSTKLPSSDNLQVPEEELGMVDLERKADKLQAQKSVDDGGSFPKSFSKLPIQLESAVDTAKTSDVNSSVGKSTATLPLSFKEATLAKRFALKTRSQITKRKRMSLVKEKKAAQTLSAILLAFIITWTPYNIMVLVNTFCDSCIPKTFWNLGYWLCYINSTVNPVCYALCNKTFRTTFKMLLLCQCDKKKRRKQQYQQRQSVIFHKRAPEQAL

SMILES strings stand for the structures.

In general, IC50 refers to the concentration at which inhibition is half-maximal.

The first assay deals with Human recombinant PDE4B2 (Homo sapiens (Human), UniProt Q07343). Description: PDE4B2 HTRF assay. The assay is classed as biochemical. The procedure:
PDE4B2 activity is detected using the LANCE Ultra cAMP homogeneous time resolved fluorescence resonance energy transfer (TR-FRET) assay from Perkin Elmer. The assay is based on the competition between the europium (Eu) chelate-labeled cAMP tracer and sample cAMP for binding sites on cAMP-specific monoclonal antibodies (mAb) labelled with the ULight™ dye. The assay is carried out in 384-well low volume plates in a volume of 10 μl. Human recombinant PDE4B2 (80 pM) is incubated for 2 h with 3 nM cAMP in buffer containing 1×HBSS, 5 mM HEPES, 3 mM MgCl2, 0.1% BSA, pH 7.4 with or without test compounds. The enzymatic reactions are efficiently stopped by the addition of 500 μM IBMX present in the combined Stop/Detection buffer containing europium (Eu) chelate-labeled cAMP tracer and cAMP-specific monoclonal antibodies (mAb) labelled with the ULight™ dye. […] IC50 values are determined from competition curves using a non-linear curve fitting program.
Background: Time-resolved FRET reads energy transfer from a long-lived donor to a nearby acceptor.
Regarding `COc1ccc([C@H](Cc2c(Cl)c[n+]([O-])cc2Cl)OC(=O)c2ccc(CNC(C(=O)OC[C@@H]3CCCN3C)c3ccccc3)s2)cc1OC` (stereo partly drawn) [Example 16, [(1S)-2-(3,5-dichloro-1-oxido-pyridin-1-ium-4-yl)-1-(3,4-dimethoxyphenyl)ethyl] 5-[[[2-[[(2S)-1-methylpyrrolidin-2-yl]methoxy]-2-oxo-1-phenyl-ethyl]amino]methyl]thiophene-2-carboxylate], the IC50 fell in the range of 0.001 to 0.01 µM.

The next assay deals with Human M3 receptor membranes (Homo sapiens (Human), UniProt P20309). Description: M3 Receptor radioligand binding assay. How it is done:
M3 Receptor Radioligand Binding Assay:
The assay is carried out in 96-well polypropylene plates in a volume of 250 μl. […] The final assay concentration of DMSO is 0.5% (v/v). The plates are sealed and incubated for 2 h at room temperature on an orbital shaker (slow speed). Membranes are harvested onto 96-well unifilter GF/C filter plates pre-treated with 0.5% polyethyleneimine (v/v), using a filter manifold, washed four times with 200 μl of assay buffer. The plates are dried before addition of 50 μl of microscint-0, sealed then read in a Trilux Microbeta scintillation counter. IC50 values are determined from competition curves using a non-linear curve fitting program. Ki values are calculated from IC50 values by the Cheng and Prusoff equation.
With `CN1CCC(COC(=O)C(NCc2ccc(C(=O)O[C@@H](Cc3c(Cl)c[n+]([O-])cc3Cl)c3ccc(OC(F)F)c(OCC4CC4)c3)s2)c2ccccc2)CC1` (stereo partly drawn) [Example 13, [(1S)-1-[3-(cyclopropylmethoxy)-4-(difluoromethoxy)phenyl]-2-(3,5-dichloro-1-oxido-pyridin-1-ium-4-yl)ethyl] 5-[[[2-[(1-methyl-4-piperidyl)methoxy]-2-oxo-1-phenyl-ethyl]amino]methyl]thiophene-2-carboxylate], the IC50 was 0.001 to 0.01 µM.

As for `COc1ccc([C@H](Cc2c(Cl)c[n+]([O-])cc2Cl)OC(=O)c2ccc(CNC(C(=O)OCCN3CCCC3)c3ccccc3)s2)cc1OC` (stereo partly drawn) [Example 21, [(1S)-2-(3,5-dichloro-1-oxido-pyridin-1-ium-4-yl)-1-(3,4-dimethoxyphenyl)ethyl] 5-[[[2-oxo-1-phenyl-2-(2-pyrrolidin-1-ylethoxy)ethyl]amino]methyl]thiophene-2-carboxylate], the IC50 lay within 0.01 to 0.1 µM.

As for `COc1ccc([C@H](Cc2c(Cl)c[n+]([O-])cc2Cl)OC(=O)c2ccc(CNC(C(=O)OCC3CCN(C)CC3)c3ccccc3)s2)cc1OC` (stereo partly drawn) [Example 23, [(1S)-2-(3,5-dichloro-1-oxido-pyridin-1-ium-4-yl)-1-(3,4-dimethoxyphenyl)ethyl] 5-[[[2-[(1-methyl-4-piperidyl)methoxy]-2-oxo-1-phenyl-ethyl]amino]methyl]thiophene-2-carboxylate], the 50% inhibitory concentration (IC50) is 0.001 to 0.01 µM.

`COc1ccc([C@H](Cc2c(Cl)c[n+]([O-])cc2Cl)OC(=O)c2ccc(CNC(C(=O)OCC3CCN(C)CC3)c3ccccc3F)s2)cc1OC` (stereo partly drawn) [Example 24, [(1S)-2-(3,5-dichloro-1-oxido-pyridin-1-ium-4-yl)-1-(3,4-dimethoxyphenyl)ethyl] 5-[[[1-(2-fluorophenyl)-2-[(1-methyl-4-piperidyl)methoxy]-2-oxo-ethyl]amino]methyl]thiophene-2-carboxylate] yielded an IC50 of 0.001 to 0.01 µM.

With `COc1ccc([C@H](Cc2c(Cl)c[n+]([O-])cc2Cl)OC(=O)c2ccc(CNC(CO)(C(=O)OCC3CCN(C)CC3)c3ccccc3)s2)cc1OC` (stereo partly drawn) [Example 35, [(1S)-2-(3,5-dichloro-1-oxido-pyridin-1-ium-4-yl)-1-(3,4-dimethoxyphenyl)ethyl] 5-[[[1-(hydroxymethyl)-2-[(1-methyl-4-piperidyl)methoxy]-2-oxo-1-phenyl-ethyl]amino]methyl]thiophene-2-carboxylate], the half-maximal inhibitory concentration (IC50) was 0.001 to 0.01 µM.

`COc1ccc([C@H](Cc2c(Cl)c[n+]([O-])cc2Cl)OC(=O)c2ccc(CNC3(C(=O)OCC4CCN(C)CC4)CCc4ccccc43)s2)cc1OC` (stereo partly drawn) [Example 38, [(1S)-2-(3,5-dichloro-1-oxido-pyridin-1-ium-4-yl)-1-(3,4-dimethoxyphenyl)ethyl]5-[[[1-[(1-methyl-4-piperidyl)methoxycarbonyl]indan-1-yl]amino]methyl]thiophene-2-carboxylate] returned an IC50 of 0.001 to 0.01 µM.

`COc1ccc([C@H](Cc2c(Cl)c[n+]([O-])cc2Cl)OC(=O)c2ccc(CNC(C(=O)OCC3CCN(C)CC3)c3ccccc3)s2)cc1OC` (stereo partly drawn) [Example 87, [(1S)-2-(3,5-dichloro-1-oxido-pyridin-1-ium-4-yl)-1-(3,4-dimethoxyphenyl)ethyl] 5-[[[2-[(1-methyl-4-piperidyl)methoxy]-2-oxo-1-phenyl-ethyl]amino]methyl]thiophene-2-carboxylate]: the IC50 was in the range of 0.001 to 0.01 µM.

For `COc1ccc([C@H](Cc2c(Cl)c[n+]([O-])cc2Cl)OC(=O)c2ccc(CNC(CO)(C(=O)OCC3CCN(C)CC3)c3ccccc3)s2)cc1OC` (stereo partly drawn) [Example 105, [(1S)-2-(3,5-dichloro-1-oxido-pyridin-1-ium-4-yl)-1-(3,4-dimethoxyphenyl)ethyl] 5-[[[1-(hydroxymethyl)-2-[(1-methyl-4-piperidyl)methoxy]-2-oxo-1-phenyl-ethyl]amino]methyl]thiophene-2-carboxylate], the IC50 lay in the range of 0.001 to 0.01 µM.
